## Apparent affinities of Ab-91 variants for a coronavirus HR2 peptide

From the AlphaSeq antibody data of Engelhart et al. 2022 (doi:10.1038/s41597-022-01779-4), copy in the FLAb collection.

Target peptide (SARS-CoV-2 spike, HR2 region): PDVDLGDISGINAS

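The starting antibody came from a phage panning campaign against this peptide. Library AAYL51 holds single substitutions and randomly drawn double and triple substitutions in the CDRs. AlphaSeq pools MATa yeast showing the antibodies with MATalpha yeast showing the peptide. After mating in shaken culture at 30 °C for 16 h, diploids were selected and their barcode pairs sequenced. Scores were corrected for input abundance and mapped to Kd with protein pairs of known affinity run in the same pool. There are three technical replicates.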

Each scFv is VL, a 15-residue (Gly4Ser)3 linker, VH, as in the parent Ab-91, and differs from it in the CDRs of the heavy chain only.
VL: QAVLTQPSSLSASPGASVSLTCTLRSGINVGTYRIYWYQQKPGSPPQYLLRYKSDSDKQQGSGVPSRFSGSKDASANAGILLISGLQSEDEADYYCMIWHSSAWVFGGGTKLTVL
VH: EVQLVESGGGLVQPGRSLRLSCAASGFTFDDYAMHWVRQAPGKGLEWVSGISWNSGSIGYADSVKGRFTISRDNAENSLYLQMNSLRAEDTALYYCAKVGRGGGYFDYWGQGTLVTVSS

Positions count from residue 1 of the parent VH; G26E puts E in place of G. The read-out is the apparent dissociation constant on a log10 scale (nM): the lower, the stronger. A mean of the replicates is given; it leaves out those without a signal. Where no diploid with the target was found in that replicate, the entry reads "n.d.": below detection, most likely a poor binder, though not proof of it. Background: pairings of library AAYL51 with three empty control strains gave a value in 21% of cases (median 4.54, 5th percentile 3.26). Values in that range, when seen in few replicates, are hard to tell from nonspecific mating. The control count says in how many pairings with the empty strains this scFv gave a signal, with their mean in brackets.

{"changes": "G26E G59T V64P", "log10 Kd, replicates": "n.d. / n.d. / n.d.", "log10 Kd (nM), mean": "n.d.", "empty controls": "0/9"}
{"changes": "G59V D62L K65P", "log10 Kd, replicates": "n.d. / n.d. / n.d.", "log10 Kd (nM), mean": "n.d.", "empty controls": "0/9"}
{"changes": "D30E W53F S57D", "log10 Kd, replicates": "1.22 / 0.99 / 0.86", "log10 Kd (nM), mean": "1.02", "empty controls": "0/9"}
{"changes": "Y32R R101T F106I", "log10 Kd, replicates": "n.d. / n.d. / n.d.", "log10 Kd (nM), mean": "n.d.", "empty controls": "0/9"}
{"changes": "F27G D62I", "log10 Kd, replicates": "4.20 / 4.57 / n.d.", "log10 Kd (nM), mean": "4.39", "empty controls": "1/9 (4.90)"}
{"changes": "D30W Y108R", "log10 Kd, replicates": "5.26 / 4.31 / n.d.", "log10 Kd (nM), mean": "4.78", "empty controls": "5/9 (5.21)"}
{"changes": "T28V S52T V64Y", "log10 Kd, replicates": "4.64 / n.d. / n.d.", "log10 Kd (nM), mean": "4.64", "empty controls": "1/9 (3.50)"}
{"changes": "M34C G102L Y105E", "log10 Kd, replicates": "n.d. / n.d. / n.d.", "log10 Kd (nM), mean": "n.d.", "empty controls": "0/9"}
{"changes": "D30Q I58H Y108M", "log10 Kd, replicates": "1.32 / 1.37 / 0.42", "log10 Kd (nM), mean": "1.04", "empty controls": "3/9 (4.28)"}
{"changes": "M34W N54G Y60G", "log10 Kd, replicates": "n.d. / n.d. / 4.78", "log10 Kd (nM), mean": "4.78", "empty controls": "4/9 (4.55)"}
{"changes": "I58W G102Y Y108H", "log10 Kd, replicates": "4.21 / 3.45 / 4.45", "log10 Kd (nM), mean": "4.04", "empty controls": "6/9 (4.63)"}
{"changes": "Y32E K65I F106H", "log10 Kd, replicates": "n.d. / n.d. / n.d.", "log10 Kd (nM), mean": "n.d.", "empty controls": "1/9 (4.00)"}
{"changes": "A33R A61C G103N", "log10 Kd, replicates": "n.d. / n.d. / n.d.", "log10 Kd (nM), mean": "n.d.", "empty controls": "2/9 (3.75)"}
{"changes": "D30N G50E G56L", "log10 Kd, replicates": "n.d. / n.d. / n.d.", "log10 Kd (nM), mean": "n.d.", "empty controls": "0/9"}
{"changes": "D30Y I51Q A61P", "log10 Kd, replicates": "n.d. / n.d. / n.d.", "log10 Kd (nM), mean": "n.d.", "empty controls": "2/9 (4.49)"}
{"changes": "W53F D107P Y108F", "log10 Kd, replicates": "4.17 / n.d. / n.d.", "log10 Kd (nM), mean": "4.17", "empty controls": "2/9 (4.19)"}
{"changes": "G100V", "log10 Kd, replicates": "n.d. / n.d. / n.d.", "log10 Kd (nM), mean": "n.d.", "empty controls": "0/9"}
{"changes": "A33E W53L G102H", "log10 Kd, replicates": "n.d. / n.d. / n.d.", "log10 Kd (nM), mean": "n.d.", "empty controls": "0/9"}
{"changes": "D31V S55T D62V", "log10 Kd, replicates": "n.d. / n.d. / 3.41", "log10 Kd (nM), mean": "3.41", "empty controls": "1/9 (5.41)"}

The closing 2 entries, repeated:

| changes | log10 Kd, replicates | log10 Kd (nM), mean | empty controls |
|---|---|---|---|
| A33E W53L G102H | n.d. / n.d. / n.d. | n.d. | 0/9 |
| D31V S55T D62V | n.d. / n.d. / 3.41 | 3.41 | 1/9 (5.41) |

In this assay the parent's reference entry averaged 1.86; its copy inside this library read 0.88.